Columns and labels:
[1] = Relative humidity stability, saturated salt solutions at ambient temperature, XRPD; format: physicochemical
various enzymes = details: literature (Pezet 1998, Breuil 1999); cited from earlier work

| Results (form by XRPD) ([1]; 75% RH, 1 week) | Results (form by XRPD) ([1]; 75% RH, 1 day) | Results (form by XRPD) ([1]; 75% RH, 3 days) | Conversion to hydrate ([1]; 75% RH, up to four weeks) | Results (form by XRPD) ([1]; 94% RH, 1 day) | Results (form by XRPD) ([1]; 94% RH, 3 days) | SMILES | Results (form by XRPD) ([1]; 75% RH, 4 weeks) | Conversion to hydrate ([1]; 94% RH) | Conversion to hydrate ([1]; 98% RH) | Results (form by XRPD) ([1]; 98% RH, 4 weeks) | Oxidation by various enzymes (various enzymes) | Results (form by XRPD) ([1]; 94% RH, 4 weeks) |
| --- | --- | --- | --- | --- | --- | --- | --- | --- | --- | --- | --- | --- |
| carbamazepine (Form III) | carbamazepine (Form III) | carbamazepine (Form III) | no conversion | carbamazepine (Form III) | carbamazepine (Form III) | NC(=O)N1c2ccccc2C=Cc2ccccc21 [carbamazepine] | carbamazepine (Form III) | partially converts to the dihydrate between three days and one week | Full conversion to the dihydrate is observed in less than one day | carbamazepine dihydrate | – | – |
| – | – | – | – | – | – | COc1cc(/C=C/c2ccc(O)cc2)cc(OC)c1 [pterostilbene, trans-3,5-dimethoxy-4′-hydroxystilbene] | pterostilbene (Form I) | – | – | pterostilbene (Form I) | easily oxidized | pterostilbene (Form I) |

— patent US8399712B2 (priority 2010, dated 2013)
